Target: Phosphatidylinositol 4,5-bisphosphate 3-kinase catalytic subunit alpha isoform (Mus musculus, UniProt P42337)

Amino acid sequences for entries named in this document (tags omitted).
UniProt P42337, whole entry: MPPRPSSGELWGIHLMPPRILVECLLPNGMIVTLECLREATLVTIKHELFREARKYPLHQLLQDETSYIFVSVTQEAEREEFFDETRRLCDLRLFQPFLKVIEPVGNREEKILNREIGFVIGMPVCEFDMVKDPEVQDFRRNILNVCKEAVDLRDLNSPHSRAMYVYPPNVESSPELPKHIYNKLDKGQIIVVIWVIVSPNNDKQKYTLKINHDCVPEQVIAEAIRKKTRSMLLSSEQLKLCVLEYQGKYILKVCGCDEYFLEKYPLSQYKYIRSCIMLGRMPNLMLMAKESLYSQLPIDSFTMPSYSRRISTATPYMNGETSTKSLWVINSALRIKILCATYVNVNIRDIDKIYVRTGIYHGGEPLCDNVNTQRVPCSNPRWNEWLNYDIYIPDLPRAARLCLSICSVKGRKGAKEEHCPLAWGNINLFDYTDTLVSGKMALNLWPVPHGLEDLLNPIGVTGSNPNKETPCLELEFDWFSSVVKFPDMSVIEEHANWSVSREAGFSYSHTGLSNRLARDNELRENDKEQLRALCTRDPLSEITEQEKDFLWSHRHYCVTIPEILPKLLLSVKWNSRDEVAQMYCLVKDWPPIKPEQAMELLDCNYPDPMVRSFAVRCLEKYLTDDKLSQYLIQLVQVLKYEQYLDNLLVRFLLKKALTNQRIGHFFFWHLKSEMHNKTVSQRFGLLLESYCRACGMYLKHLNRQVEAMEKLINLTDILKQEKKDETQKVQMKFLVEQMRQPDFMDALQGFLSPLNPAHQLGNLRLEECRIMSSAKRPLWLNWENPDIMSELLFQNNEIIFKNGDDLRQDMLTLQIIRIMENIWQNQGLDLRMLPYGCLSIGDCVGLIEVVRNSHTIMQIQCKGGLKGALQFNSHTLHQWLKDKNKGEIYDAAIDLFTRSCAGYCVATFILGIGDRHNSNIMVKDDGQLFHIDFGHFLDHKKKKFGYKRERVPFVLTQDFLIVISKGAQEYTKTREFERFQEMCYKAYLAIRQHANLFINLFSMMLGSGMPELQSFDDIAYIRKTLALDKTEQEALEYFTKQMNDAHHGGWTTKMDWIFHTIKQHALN

Ki: 3.7 nM
SMILES: COc1ccc(-c2cc3c(C)nc(N)nc3n(C3CCC3)c2=O)cn1
